Laboratory results: ChEMBL document CHEMBL5104187, “Discovery of 2-(1-(3-Chloro-4-cyanophenyl)-1H-pyrazol-3-yl)acetamides as Potent, Selective, and Orally Available Antagonists Targeting the Androgen Receptor” (J Med Chem, 2022)

Sequences of proteins named here, by UniProt entry; tags and fusion partners are left off.
Androgen receptor (Homo sapiens), P10275, UniProt P10275, whole entry F877L: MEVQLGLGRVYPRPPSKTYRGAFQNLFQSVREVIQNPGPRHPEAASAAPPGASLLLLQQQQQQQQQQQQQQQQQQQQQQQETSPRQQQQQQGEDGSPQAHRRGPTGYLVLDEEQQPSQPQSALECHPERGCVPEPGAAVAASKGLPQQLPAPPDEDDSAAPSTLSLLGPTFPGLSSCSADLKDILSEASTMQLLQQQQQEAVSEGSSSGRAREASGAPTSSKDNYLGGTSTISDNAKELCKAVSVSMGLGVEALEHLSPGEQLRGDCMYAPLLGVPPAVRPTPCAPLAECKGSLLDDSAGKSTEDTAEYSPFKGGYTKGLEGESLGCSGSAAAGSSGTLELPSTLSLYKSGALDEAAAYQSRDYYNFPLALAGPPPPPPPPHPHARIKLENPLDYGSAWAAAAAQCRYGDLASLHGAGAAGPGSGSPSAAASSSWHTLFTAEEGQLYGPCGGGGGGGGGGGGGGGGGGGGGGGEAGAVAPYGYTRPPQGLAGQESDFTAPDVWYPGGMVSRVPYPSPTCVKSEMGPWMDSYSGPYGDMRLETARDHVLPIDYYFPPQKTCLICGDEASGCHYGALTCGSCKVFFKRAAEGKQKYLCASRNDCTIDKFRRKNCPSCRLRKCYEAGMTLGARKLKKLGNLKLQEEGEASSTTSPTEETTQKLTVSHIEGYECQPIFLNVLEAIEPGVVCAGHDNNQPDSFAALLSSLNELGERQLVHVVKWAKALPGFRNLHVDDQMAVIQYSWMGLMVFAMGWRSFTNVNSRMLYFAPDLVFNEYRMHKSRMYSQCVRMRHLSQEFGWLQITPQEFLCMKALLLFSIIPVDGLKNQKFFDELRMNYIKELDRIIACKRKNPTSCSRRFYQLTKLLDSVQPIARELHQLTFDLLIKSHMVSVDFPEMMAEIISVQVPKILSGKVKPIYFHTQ

Test system: Androgen receptor (Homo sapiens), P10275 [F877L]
Assay: Potency index, ratio of Darolutamide IC50 to test compound IC50 for inhibition androgen receptor F877L mutant (unknown origin) transcriptional activity

## N#Cc1ccc(-n2ccc(CC(=O)Nc3ccc(F)nc3)n2)cc1Cl
  Ratio IC50: 20
